Test results taken from patent US12173004B2, “Pharmaceutical compositions comprising heterocycle fused gamma carboline prodrugs” (INTRA-CELLULAR THERAPIES, INC., priority 2017, dated 2024).
Like-named read-outs stand apart in the source and are kept apart here.

What was measured:
[1] = biological target: mu-opiate receptors (Mus musculus (Mouse), UniProt P42866); test: Mouse Tail Flick Assay: antagonism of morphine-induced analgesia
[2] = test system: Male CD-1 mice; test: Mouse Tail Flick Assay: time course for analgesia; type: in vivo; settings: 1 mg/kg s.c.
[3] = biological target: Delta opioid (Homo sapiens (Human), UniProt P41143); test: Receptor binding profile: Delta opioid
[4] = test system: Male CD-1 mice; test: Mouse Tail Flick Assay: analgesia after 14-day chronic administration
[5] = biological target: NOP (Nociceptin Receptor) (Homo sapiens (Human), UniProt P41146); test: Receptor binding profile: NOP
[6] = test system: Male CD-1 mice

## O=C1CN2c3c(cccc3[C@@H]3CN(CCCC(=O)c4ccc(F)cc4)CC[C@@H]32)N1 [Example 1]
[1]; Group 4 Cmpd/Mor: 0.1 mg/kg compound p.o. 60 min + 5 mg/kg morphine 30 min before test
  mean latency: 8.870 s
[1]; Group 5 Cmpd/Mor: 0.3 mg/kg compound p.o. 60 min + 5 mg/kg morphine 30 min before test
  mean latency: 6.907 s
[1]; Group 6 Cmpd/Mor: 1 mg/kg compound p.o. 60 min + 5 mg/kg morphine 30 min before test
  mean latency: 6.240 s

## O=C1CN2c3c(cccc3[C@@H]3CN(CCCOc4ccc(F)cc4)CC[C@@H]32)N1 [Example 2, (6bR,10aS)-8-(3-(4-fluorophenoxy)propyl)-6b,7,8,9,10,10a-hexahydro-1H-pyrido[3′,4′:4,5]pyrrolo[1,2,3-de]quinoxalin-2(3H)-one]
[2]; 30 min prior
  TF Latency: 5.77 s
[2]; 2 h prior
  TF Latency: 2.42 s
[2]; 4 h prior
  TF Latency: 1.48 s
[2]; 6 h prior (text: 8 hours)
  TF Latency: 1.36 s
[2]; 24 h prior
  TF Latency: 1.29 s
[3]
  Ki (nM) or maximum inhibition, Delta opioid: No inhibition
[4]; chronic 14-day 0.3 mg/kg, acute 0.01 mg/kg s.c.
  Latency: 1.66 s
[4]; chronic 14-day 0.3 mg/kg, acute 0.03 mg/kg s.c.
  Latency: 1.30 s
[4]; chronic 14-day 0.3 mg/kg, acute 0.1 mg/kg s.c.
  Latency: 2.60 s
[4]; chronic 14-day 0.3 mg/kg, acute 0.3 mg/kg s.c.
  Latency: 3.93 s
[4]; chronic 14-day 0.3 mg/kg, acute 1.0 mg/kg s.c.
  Latency: 5.64 s
[4]; chronic 14-day 0.3 mg/kg, acute vehicle
  Latency: 0.893 s
[4]; chronic 14-day 3.0 mg/kg, acute 0.01 mg/kg s.c.
  Latency: 1.64 s
[4]; chronic 14-day 3.0 mg/kg, acute 0.03 mg/kg s.c.
  Latency: 1.80 s
[4]; chronic 14-day 3.0 mg/kg, acute 0.1 mg/kg s.c.
  Latency: 3.94 s
[4]; chronic 14-day 3.0 mg/kg, acute 0.3 mg/kg s.c.
  Latency: 4.84 s
[4]; chronic 14-day 3.0 mg/kg, acute 1.0 mg/kg s.c.
  Latency: 7.94 s
[4]; chronic 14-day 3.0 mg/kg, acute vehicle
  Latency: 1.04 s
[4]; chronic 14-day vehicle, acute 0.01 mg/kg s.c.
  Latency: 1.87 s
[4]; chronic 14-day vehicle, acute 0.03 mg/kg s.c.
  Latency: 2.50 s
[4]; chronic 14-day vehicle, acute 0.1 mg/kg s.c.
  Latency: 5.26 s
[4]; chronic 14-day vehicle, acute 0.3 mg/kg s.c.
  Latency: 8.26 s
[4]; chronic 14-day vehicle, acute 1.0 mg/kg s.c.
  Latency: 9.74 s
[5]
  Ki (nM) or maximum inhibition, NOP: No inhibition
[6]; 1 mg/kg 30 min before test, naloxone 3 mg/kg i.p. pre-treatment
  mean latency: 1.3 s
[6]; 1 mg/kg 30 min before test, saline pre-treatment
  mean latency: 4.1 s
[6]; 3 mg/kg 30 min before test, naloxone 3 mg/kg i.p. pre-treatment
  mean latency: 1.7 s
[6]; 3 mg/kg 30 min before test, saline pre-treatment
  mean latency: 7.4 s
[6]; 10 mg/kg 30 min before test, saline pre-treatment
  mean latency: 9.8 s
